The source of these data is publication PMC9596378, “Discovery and molecular basis of subtype-selective cyclophilin inhibitors” (Nature Chemical Biology, 2022).

By UniProt entry, the sequences of proteins in these tests, tags left out. Residues count along the entry.
UniProt P23284, 34-216 limits assumed: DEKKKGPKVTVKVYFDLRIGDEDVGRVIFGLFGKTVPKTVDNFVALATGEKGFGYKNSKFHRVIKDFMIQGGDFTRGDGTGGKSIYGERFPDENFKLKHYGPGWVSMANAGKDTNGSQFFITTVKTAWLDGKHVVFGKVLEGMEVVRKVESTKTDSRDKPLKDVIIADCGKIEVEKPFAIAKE
UniProt P30414, 7-179 limits assumed: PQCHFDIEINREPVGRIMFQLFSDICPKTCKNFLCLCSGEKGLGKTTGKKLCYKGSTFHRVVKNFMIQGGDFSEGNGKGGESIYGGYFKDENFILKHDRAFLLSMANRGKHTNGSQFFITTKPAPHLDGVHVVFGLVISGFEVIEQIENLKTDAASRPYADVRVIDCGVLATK
UniProt Q9Y3C6, whole entry: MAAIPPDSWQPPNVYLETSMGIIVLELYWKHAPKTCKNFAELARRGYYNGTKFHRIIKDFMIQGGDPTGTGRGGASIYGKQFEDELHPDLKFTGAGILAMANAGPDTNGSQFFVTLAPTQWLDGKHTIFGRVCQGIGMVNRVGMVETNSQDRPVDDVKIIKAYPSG
UniProt P62937, whole entry: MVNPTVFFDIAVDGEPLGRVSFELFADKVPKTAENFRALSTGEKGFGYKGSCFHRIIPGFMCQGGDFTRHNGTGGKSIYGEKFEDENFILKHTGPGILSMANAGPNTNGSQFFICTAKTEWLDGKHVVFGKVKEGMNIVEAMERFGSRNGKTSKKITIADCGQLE
UniProt P45877, 24-212 limits assumed: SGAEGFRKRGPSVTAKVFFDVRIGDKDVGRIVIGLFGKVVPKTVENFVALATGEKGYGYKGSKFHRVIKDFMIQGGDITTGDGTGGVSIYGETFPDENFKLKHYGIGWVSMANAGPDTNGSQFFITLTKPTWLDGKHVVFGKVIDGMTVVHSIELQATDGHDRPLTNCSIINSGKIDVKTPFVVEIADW
UniProt P30405, 45-207 limits assumed: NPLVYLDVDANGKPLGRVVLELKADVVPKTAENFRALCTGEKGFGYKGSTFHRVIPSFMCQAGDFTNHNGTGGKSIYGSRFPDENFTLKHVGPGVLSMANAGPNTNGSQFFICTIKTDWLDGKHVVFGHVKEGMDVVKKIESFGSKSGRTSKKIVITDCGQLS
UniProt Q9UNP9, 131-301 limits assumed: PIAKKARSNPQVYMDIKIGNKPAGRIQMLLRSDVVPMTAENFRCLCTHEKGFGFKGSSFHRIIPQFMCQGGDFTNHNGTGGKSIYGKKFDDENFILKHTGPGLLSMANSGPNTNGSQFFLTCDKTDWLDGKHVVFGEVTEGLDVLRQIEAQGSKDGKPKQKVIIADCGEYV
UniProt O43447, whole entry: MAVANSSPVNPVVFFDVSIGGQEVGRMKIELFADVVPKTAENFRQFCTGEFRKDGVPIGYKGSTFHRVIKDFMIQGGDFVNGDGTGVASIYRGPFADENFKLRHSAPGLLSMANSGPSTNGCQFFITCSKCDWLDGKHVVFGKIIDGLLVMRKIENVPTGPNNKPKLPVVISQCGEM
UniProt Q96BP3, 473-646 limits assumed: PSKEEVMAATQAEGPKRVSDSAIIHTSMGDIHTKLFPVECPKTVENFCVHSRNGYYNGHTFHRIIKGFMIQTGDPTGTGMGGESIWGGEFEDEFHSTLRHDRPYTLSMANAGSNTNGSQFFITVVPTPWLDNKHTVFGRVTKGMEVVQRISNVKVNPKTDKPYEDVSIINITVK
UniProt Q13427, 1-179 limits assumed: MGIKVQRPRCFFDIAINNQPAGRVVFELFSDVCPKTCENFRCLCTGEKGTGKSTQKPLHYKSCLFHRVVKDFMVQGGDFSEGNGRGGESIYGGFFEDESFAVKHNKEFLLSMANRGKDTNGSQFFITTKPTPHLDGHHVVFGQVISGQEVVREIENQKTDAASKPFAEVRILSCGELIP
UniProt Q08752, 1-183 limits assumed: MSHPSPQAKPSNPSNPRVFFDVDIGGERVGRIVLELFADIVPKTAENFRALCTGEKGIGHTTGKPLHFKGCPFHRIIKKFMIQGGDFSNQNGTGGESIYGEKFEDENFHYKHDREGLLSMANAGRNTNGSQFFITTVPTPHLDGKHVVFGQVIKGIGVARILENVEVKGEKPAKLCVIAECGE

pIC50: −log10 of the molar value. Where two headings read alike, the source gives them in different places. Bounds are passed on as bounds.

The target of data set [1] is CypB (Homo sapiens, UniProt P23284). To be noted: read-out: Wild-Type Cyclophilin Prolyl Isomerase Inhibition IC50 Values, CypB; wild-type CypB.
Data set [2] deals with NKTR (Homo sapiens, UniProt P30414). Nature of the data set: Chymotrypsin coupled prolyl-isomerase assay. It is filed as biochemical.
The target of data set [3] is PPIL1 (Homo sapiens, UniProt Q9Y3C6). Put plainly: Chymotrypsin coupled prolyl-isomerase assay. It is filed as biochemical.
For data set [4], the target named is CypA (Homo sapiens, UniProt P62937). Put plainly: Chymotrypsin coupled prolyl-isomerase assay. It is filed as biochemical. To be noted: read-out: Wild-Type Cyclophilin Prolyl Isomerase Inhibition IC50 Values, CypA; wild-type CypA.
Data set [5] has as its target CypC (Homo sapiens, UniProt P45877). Put plainly: Chymotrypsin coupled prolyl-isomerase assay. It is filed as biochemical.
Data set [6] deals with CypD (Homo sapiens, UniProt P30405). Nature of the data set: Chymotrypsin coupled prolyl-isomerase assay. It is filed as biochemical.
Data set [7] concerns the target CypE (Homo sapiens, UniProt Q9UNP9). Nature of the data set: Chymotrypsin coupled prolyl-isomerase assay. It is filed as biochemical. To be noted: read-out: Wild-Type Cyclophilin Prolyl Isomerase Inhibition IC50 Values, CypE; wild-type CypE.
Data set [8] deals with CypH (Homo sapiens, UniProt O43447). Nature of the data set: Chymotrypsin coupled prolyl-isomerase assay. It is filed as biochemical.
Data set [9] concerns the target PPWD1 (Homo sapiens, UniProt Q96BP3). Put plainly: Chymotrypsin coupled prolyl-isomerase assay. It is filed as biochemical.
Data set [10] addresses CypG (Homo sapiens, UniProt Q13427). Nature of the data set: Chymotrypsin coupled prolyl-isomerase assay. It is filed as biochemical.
In data set [11] the target is Cyp40 (Homo sapiens, UniProt Q08752). Put plainly: Chymotrypsin coupled prolyl-isomerase assay. It is filed as biochemical.
Setting [12] is: read-out: Wild-Type Cyclophilin Prolyl Isomerase Inhibition IC50 Values, NKTR, wild-type NKTR.
The mark [13] stands for this setting: read-out: Wild-Type Cyclophilin Prolyl Isomerase Inhibition IC50 Values, PPIL1, wild-type PPIL1.
Where [14] appears, read: read-out: Wild-Type Cyclophilin Prolyl Isomerase Inhibition IC50 Values, CypC, wild-type CypC.
The mark [15] stands for this setting: read-out: Wild-Type Cyclophilin Prolyl Isomerase Inhibition IC50 Values, CypD, wild-type CypD.
The mark [16] stands for this setting: read-out: Wild-Type Cyclophilin Prolyl Isomerase Inhibition IC50 Values, CypH, wild-type CypH.
Setting [17] is: read-out: Wild-Type Cyclophilin Prolyl Isomerase Inhibition IC50 Values, PPWD1, wild-type PPWD1.
The mark [18] stands for this setting: read-out: Wild-Type Cyclophilin Prolyl Isomerase Inhibition IC50 Values, CypG, wild-type CypG.
The mark [19] stands for this setting: read-out: Wild-Type Cyclophilin Prolyl Isomerase Inhibition IC50 Values, Cyp40, wild-type Cyp40.
Setting [20] is: read-out: IC50 NKTR, prolyl-isomerase inhibition, 5 nM cyclophilin.
The mark [21] stands for this setting: read-out: IC50 CypG, prolyl-isomerase inhibition, 5 nM cyclophilin.
Setting [22] is: read-out: IC50 CypH, prolyl-isomerase inhibition, 5 nM cyclophilin.
Setting [23] is: read-out: IC50 PPWD1, prolyl-isomerase inhibition, 5 nM cyclophilin.
Setting [24] is: read-out: IC50 CypC, prolyl-isomerase inhibition, 5 nM cyclophilin.

Regarding `NCCOCCNC(=O)[C@@H]1CCNC(=O)/C=C/C(=O)N2CCC[C@](Cc3ccccc3)(C2)C(=O)N[C@@H](Cc2ccc(-c3ccc([N+](=O)[O-])cc3)cc2)C(=O)NCc2ccccc2CC(=O)N1`, the pIC50 in [1] was 6.92; in [2] (setting [12]), 5.10; in data set [3] (setting [13]), 6.85; in data set [4] it was 6.22; in data set [5] (setting [14]) it was 6.49; in data set [6] (setting [15]), 6.82. Moreover, the pIC50 is 6.34 in data set [7]; below 4.00 in data set [8] (setting [16]); 6.43 in data set [9] (setting [17]); 5.22 in [10] (setting [18]); 6.92 in data set [11] (setting [19]).
As to `NCCOCCNC(=O)[C@@H]1CCNC(=O)/C=C/C(=O)N2CCC[C@](Cc3ccccc3)(C2)C(=O)N[C@@H](Cc2ccc(-c3ccc4occc4c3)cc2)C(=O)NCc2ccccc2CC(=O)N1`, the pIC50 in data set [1] is 6.70; in data set [2] (setting [20]), 4.30; in [2] (setting [12]) it was 4.30; in data set [3] (setting [13]), 6.22; in [4], 6.15; in data set [5] (setting [14]), 5.64. In addition, the pIC50 in [6] (setting [15]) is 6.66; in [7] it was 6.05; in data set [8] (setting [16]), below 4.00; in data set [9] (setting [17]) it was 5.49; in data set [10] (setting [21]), 4.52; in [10] (setting [18]), 4.52. In [11], this molecule gave a pIC50 of 6.05.
As for `Cc1cc(C(=O)O)ccc1-c1ccc(C[C@@H]2NC(=O)[C@]3(Cc4ccccc4)CCCN(C3)C(=O)/C=C/C(=O)NCC[C@@H](C(=O)NCCOCCN)NC(=O)Cc3ccccc3CNC2=O)cc1`, the pIC50 is 5.96 in data set [1]; below 4.00 in [2] (setting [12]); 4.96 in [3] (setting [13]); 5.80 in data set [4]; 5.10 in [5] (setting [14]); 6.77 in data set [6] (read-out: IC50 CypD, prolyl-isomerase inhibition, 5 nM cyclophilin, Suc-AAPF-AMC, mean±s.e.m. of 3 technical replicates (B52, B53, C3A wild-type: mean±s.d. of 4 independent replicates)). The pIC50 in [7] was 5.85; in data set [8] (setting [16]), below 4.00; in data set [9] (setting [17]), below 4.00; in data set [10] (setting [18]) it was below 4.00; in [11] it was 5.40.
Regarding `N#Cc1ccc(-c2ccc(C[C@@H]3NC(=O)[C@]4(Cc5ccccc5)CCCN(C4)C(=O)/C=C/C(=O)NCC[C@@H](C(=O)NCCOCCN)NC(=O)Cc4ccccc4CNC3=O)cc2)cc1`, the pIC50 in data set [1] is 6.80; in data set [2] (setting [12]), 5.00; in data set [3] (setting [13]), 6.92; in [4], 6.40; in data set [5] (setting [14]) it was 6.44; in data set [6] (setting [15]) it was 7.15. Also, the negative-log IC50 (pIC50) in data set [7] is 6.40; in [8] (setting [22]), 4.40; in data set [8] (setting [16]), 4.40; in data set [9] (setting [17]) it was 6.52; in data set [10] (setting [18]), 5.22; in data set [11] (setting [19]) it was 6.72.
On to `NCCOCCNC(=O)[C@@H]1CCNC(=O)/C=C/C(=O)N2CCC[C@](Cc3ccccc3)(C2)C(=O)N[C@@H](Cc2ccc(-c3ccc(C(=O)CCC(=O)O)cc3)cc2)C(=O)NCc2ccccc2CC(=O)N1`, for which the pIC50 in data set [1] is 7.30; in data set [2] (setting [20]), 4.30; in data set [2] (setting [12]), 4.30; in [3] (setting [13]) it was 6.68; in [4], 6.64; in data set [5] (setting [14]), 5.15. Further, the pIC50 in [6] (setting [15]) was 8.15; in data set [7], 7.15; in data set [8] (setting [16]) it was below 4.30; in data set [9] (setting [23]) it was 4.80; in [9] (setting [17]), 4.80; in data set [10] (setting [18]), 5.22. In data set [11], this molecule showed a pIC50 of 7.05.
As for `NCCOCCNC(=O)[C@@H]1CCNC(=O)/C=C/C(=O)N2CCC[C@](Cc3ccccc3)(C2)C(=O)N[C@@H](Cc2ccc(-c3ccc4oc(C(=O)O)cc4c3)cc2)C(=O)NCc2ccccc2CC(=O)N1`, the pIC50 was 6.80 in data set [1]; 4.52 in [2] (setting [20]); 4.52 in data set [2] (setting [12]); 6.47 in [3] (setting [13]); 6.15 in data set [4]; 4.80 in data set [5] (setting [24]). Moreover, the pIC50 is 4.80 in [5] (setting [14]); 7.40 in [6] (setting [15]); 6.77 in data set [7]; 4.30 in [8] (setting [22]); 4.30 in data set [8] (setting [16]); 4.57 in [9] (setting [23]). In addition, the pIC50 was 4.57 in data set [9] (setting [17]), 4.77 in data set [10] (setting [21]), 4.77 in data set [10] (setting [18]) and 5.52 in data set [11].
Turning to `N#CCc1ccc(-c2ccc(C[C@@H]3NC(=O)[C@]4(Cc5ccccc5)CCCN(C4)C(=O)/C=C/C(=O)NCC[C@@H](C(=O)NCCOCCN)NC(=O)Cc4ccccc4CNC3=O)cc2)cc1C(=O)O`, the pIC50 is 6.96 in data set [1]; below 4.60 in data set [2] (setting [12]); 5.52 in [3] (setting [13]); 6.39 in data set [4]; 4.89 in data set [5] (setting [24]); 4.89 in [5] (setting [14]). The pIC50 was 7.10 in data set [6] (setting [15]); 6.66 in data set [7]; below 4.60 in data set [8] (setting [16]); 5.00 in [9] (setting [23]); 5.00 in data set [9] (setting [17]); below 4.60 in data set [10] (setting [18]). Also, the pIC50 in data set [11] (setting [19]) was 5.00.
On to `NCCOCCNC(=O)[C@@H]1CCNC(=O)/C=C/C(=O)N2CCC[C@](Cc3ccccc3)(C2)C(=O)N[C@@H](Cc2ccc(-c3ccc([C@H]4C[C@@H]4C(=O)O)cc3)cc2)C(=O)NCc2ccccc2CC(=O)N1`, for which the pIC50 in data set [1] is 6.52; in data set [2] (setting [12]), below 4.60; in [3] (setting [13]), 7.30; in data set [4] it was 5.85; in data set [5] (setting [14]), 5.52; in data set [6] (setting [15]), 6.89. Besides, the pIC50 in data set [7] is 6.77; in data set [8] (setting [22]) it was 4.92; in data set [8] (setting [16]), 4.92; in [9] (setting [23]), 5.52; in data set [9] (setting [17]) it was 5.52; in [10] (setting [18]), 4.85. The molecule also showed a pIC50 in data set [11] of 5.15.
For `N#CCc1ccc(-c2ccc(C[C@@H]3NC(=O)[C@]4(Cc5ccccc5)CCCN(C4)C(=O)/C=C/C(=O)NCC[C@@H](C(=O)NCCOCCN)NC(=O)Cc4ccccc4CNC3=O)cc2)cc1`, the pIC50 in data set [1] was 7.74; in [2] (setting [12]) it was 4.77; in data set [3] (read-out: IC50 PPIL1, prolyl-isomerase inhibition, 5 nM cyclophilin), 7.70; in data set [3] (setting [13]), 7.82; in [4] it was 7.30; in data set [5] (setting [14]), 7.22. In addition, the pIC50 is 8.00 in data set [6] (setting [15]); 7.85 in data set [7]; 4.52 in data set [8] (setting [16]); 6.82 in data set [9] (setting [17]); 5.40 in data set [10] (setting [18]); 7.51 in data set [11] (read-out: IC50 Cyp40, prolyl-isomerase inhibition, 5 nM cyclophilin). For the same molecule, the pIC50 in data set [11] (setting [19]) was 7.52.
`NCCOCCNC(=O)[C@@H]1CCNC(=O)/C=C/C(=O)N2CCC[C@](Cc3ccccc3)(C2)C(=O)N[C@@H](Cc2ccc(-c3ccc(OCC(=O)O)cc3)cc2)C(=O)NCc2ccccc2CC(=O)N1`: the pIC50 in data set [1] is 6.74; in data set [2] (setting [12]) it was below 4.60; in data set [3] (setting [13]), 6.57; in [4] it was 6.30; in [5] (setting [14]), below 4.60; in data set [6] (setting [15]), 7.55. Besides, the pIC50 is 7.15 in data set [7]; below 4.60 in data set [8] (setting [16]); below 4.60 in data set [9] (setting [17]); 4.96 in [10] (setting [21]); 4.96 in [10] (setting [18]); 5.89 in data set [11].
Regarding `NCCOCCNC(=O)[C@@H]1CCNC(=O)/C=C/C(=O)N2CCC[C@](Cc3ccccc3)(C2)C(=O)N[C@@H](Cc2ccc(-c3ccc4cc(C(=O)O)oc4c3)cc2)C(=O)NCc2ccccc2CC(=O)N1`, the pIC50 was 6.72 in data set [1]; below 5.00 in [2] (setting [12]); 7.00 in [3] (setting [13]); 6.10 in [4]; 4.96 in data set [5] (setting [14]); 7.10 in data set [6] (setting [15]). The pIC50 was 6.64 in data set [7]; 5.00 in data set [8] (setting [22]); 5.00 in data set [8] (setting [16]); below 5.00 in data set [9] (setting [17]); 5.30 in [10] (setting [18]); 5.30 in [11].
Turning to `NCCOCCNC(=O)[C@@H]1CCNC(=O)/C=C/C(=O)N2CCC[C@](Cc3ccccc3)(C2)C(=O)N[C@@H](C/C=C/c2ccccc2)C(=O)NCc2ccccc2CC(=O)N1`, the pIC50 in data set [1] is 7.30; in data set [2] (setting [12]), 5.05; in data set [3] (setting [13]), 6.52; in data set [4], 6.55; in [5] (setting [14]) it was 6.91; in data set [6] (setting [15]), 7.10. Besides, the pIC50 in data set [7] was 6.49; in data set [8] (setting [16]) it was 5.00; in data set [9] (setting [17]) it was 6.35; in data set [10] (setting [18]), 5.74; in data set [11] it was 7.15.
